Values quoted from earlier work in patent publication US20070237810A1, “Biocidal fibrous and film materials comprising silver and chlorite ions” (published 2007).
Read-outs that look alike come from different tables or passages of the source.

| Compound | E^0NHE (Ag^+oo/Agoo^H2O) (bulk silver, H2O, in presence of the complexing agent) | redox potential E^ONHE (Ag^+n/Agn) (n=1) [V] | redox potential E^ONHE (Ag^+n/Agn) (n=10) [V] | redox potential E^ONHE (Ag^+n/Agn) (n=600) |
| --- | --- | --- | --- | --- |
| O=S(O)(O)=S | +0.010 |  |  |  |
| silver ion |  | −1.6 | 0 | +0.799 V |
